{
  "source": "patent US4877870A",
  "about": "“Process for producing 10-hydroxyanthracyclines” (Kirin Beer Kabushiki Kaisha, priority 1986, dated 1989)",
  "tested_on": "P388 leukemia",
  "details": "mouse, in vivo",
  "data": [
    {"smiles": "CC[C@@]1(O)C[C@H](O[C@H]2C[C@H](N3CCOCC3)[C@H](O)[C@H](C)O2)c2c(O)c3c(c(O)c2[C@H]1O)C(=O)c1cccc(O)c1C3=O", "note": "[M-R20X2, 3'-deamino-3'-(4-morpholinyl)-13-deoxo-10-hydroxycarminomycin]", "values": [
      {"measurement": "antitumor activity in comparison with M-R20X", "value": "remarkably high antitumor activity in comparison with 3'-deamino-3'-(4-morpholinyl)-13-deoxocarminomycin"}
    ]}
  ]
}
